The entries are a selection whose mix differs from that of the whole data set. Calls of active or inactive are those of the source.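 Rule for the calls: active = compounds that cut the enzyme signal by at least half of the control window in the single-dose screen; inactive = the rest.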
These molecules were tested against Low molecular weight phosphotyrosine protein phosphatase (Homo sapiens) (UniProt P24666) (assay: inhibition of human LMPTP-A enzyme – biochemical, fluorescence intensity, uHTS, primary screen (AID 651560;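 note: plate controls were DMSO wells with enzyme plus substrate for no effect and substrate without enzyme for full effect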)). Details: recombinant LMPTP-A, OMFP fluorogenic substrate, at 20 µM, active compounds read high.
In short: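 Test system: LMPTP-A, protein tyrosine phosphatase of low molecular weight; Input: 0.625 nM enzyme; Incubation: 50 min dark incubation at room temperature; Signal: endpoint fluorescence intensity from OMFP dephosphorylation; Read-out basis: % inhibition versus control wells.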

Amino acid sequences for entries named in this document (tags omitted).
UniProt P24666, whole entry: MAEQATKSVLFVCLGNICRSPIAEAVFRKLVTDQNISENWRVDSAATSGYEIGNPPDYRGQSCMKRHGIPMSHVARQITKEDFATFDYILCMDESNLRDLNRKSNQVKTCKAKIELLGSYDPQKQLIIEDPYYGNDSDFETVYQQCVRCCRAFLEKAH

SMILES | inhibition
CCC(=O)N(c1ccccc1)C1(COC)CCN(CCn2nnn(CC)c2=O)CC1 | inactive: 0.31%
CCC(=O)N(c1ccccc1)C1(COC)CCN(CCc2cccs2)CC1 | inactive: -1.04%
